The values that follow come from ChEMBL document CHEMBL1154346 (Bioorg Med Chem Lett, 2009).

Structures are written as SMILES.

Assay [1] has as its target T1, Nociceptin receptor (Homo sapiens, UniProt P41146). Description: Displacement of [3H]nociceptin from human NOP receptor expressed in CHO cells. (Displacement assays read how much labelled ligand stays bound in the presence of the test substance.)
For the next assay, the target named is Mu-type opioid receptor (Homo sapiens, UniProt P35372). The assay can be described thus: Displacement of [3H]diprenorphine from human MOP receptor expressed in CHOK1 cells. The settings on record: cho-k1.
In assay [2] the target is T1, Nociceptin receptor. The assay can be described thus: Agonist activity at human NOP receptor expressed in CHO cells assessed as inhibition of forskolin-stimulated cAMP production after 2 hrs. (Changes in cAMP serve as a functional read-out for many G protein-coupled receptors.)

The term Ki denotes a dissociation constant, usually derived from enzyme kinetics or from competition with a known ligand. Low values mean higher affinity, high ones lower affinity. By IC50 is commonly meant the concentration that gives 50% inhibition. For the molecule `CNC(=O)CN1c2ccccc2N(C2CCN(C3CCCCCCCCC3)CC2)S1(=O)=O`, the Ki at Nociceptin receptor [1] stood at 2.5 nM; at Mu-type opioid receptor, 107 nM. For the same molecule, at Nociceptin receptor [2], the IC50 was determined as 7.5 nM.

Turning to `CNC(=O)Cn1c(=O)n(C2CCN(C3CCC(C(C)(C)C)CC3)CC2)c2ccccc21` (stereo unspecified), the Ki is 5.5 nM on Nociceptin receptor [1] and 77 nM at Mu-type opioid receptor.

As for `CNC(=O)Cn1c(=O)n(C2CCN(C3CCC(C)(C)CC3)CC2)c2ccccc21`, the Ki was 5.2 nM on Nociceptin receptor [1] and 282 nM at Mu-type opioid receptor.

For the molecule `CNC(=O)Cn1c(=O)n(C2CCN(C3CCCCCC3)CC2)c2ccccc21`, the Ki on Nociceptin receptor [1] is 35 nM; at Mu-type opioid receptor, 1790 nM.

With `CNC(=O)Cn1c(=O)n(C2CCN(CC3CCCCC3)CC2)c2ccccc21`, the Ki at Nociceptin receptor [1] came out at 259 nM; at Mu-type opioid receptor, 1880 nM.

With `CNC(=O)Cn1c(=O)n(C2CCN(C3CCC4CCCCC4C3)CC2)c2ccccc21` (stereo unspecified), the Ki on Nociceptin receptor [1] is 3.5 nM; on Mu-type opioid receptor, 127 nM.

Regarding `CNC(=O)CN1Cc2ccccc2N(C2CCN(C3CCC4CCCCC4C3)CC2)S1(=O)=O` (stereo unspecified), the Ki at Nociceptin receptor [1] came out at 5 nM; on Mu-type opioid receptor, 14 nM. The IC50 on Nociceptin receptor [2] is 28 nM.

For `CNC(=O)CN1c2ccccc2N(C2CCN(C3CCCCCC3)CC2)S1(=O)=O`, the Ki on Nociceptin receptor [1] is 111 nM; on Mu-type opioid receptor it was 3180 nM. Besides, at Nociceptin receptor [2], the IC50 stood at 339 nM.

As to `CNC(=O)Cn1c(=O)n(C2CCN(C3CCC(C)(C)CC3(C)C)CC2)c2ccccc21` (stereo unspecified), the figures for the Ki at Nociceptin receptor [1] and at Mu-type opioid receptor were 4.7 nM and 47 nM, respectively.

In the case of `CNC(=O)Cn1c(=O)n(C2CCN(C3CCCCCCC3)CC2)c2ccccc21`, the Ki on Nociceptin receptor [1] was 15 nM; on Mu-type opioid receptor, 608 nM.

In the case of `CNC(=O)Cn1c(=O)n(C2CCN(Cc3ccc(C)c4ccccc34)CC2)c2ccccc21`, the Ki was 2.7 nM on Nociceptin receptor [1] and 138 nM on Mu-type opioid receptor.

Take `CNC(=O)Cn1c(=O)n(C2CCN(C3CCCC4(CCCCC4)C3)CC2)c2ccccc21` (stereo unspecified): the Ki is 1.3 nM on Nociceptin receptor [1] and 34 nM on Mu-type opioid receptor.

Consider `CNC(=O)Cn1c(=O)n(C2CCN(C3CCCC3(C)C)CC2)c2ccccc21` (stereo unspecified), for which the Ki on Nociceptin receptor [1] came to 62 nM; on Mu-type opioid receptor it was 350 nM.

Regarding `CNC(=O)CN1Cc2ccccc2N(C2CCN(Cc3ccc(C)c4ccccc34)CC2)C1=O`, the Ki at Nociceptin receptor [1] worked out at 22 nM; on Mu-type opioid receptor, 19 nM.

Turning to `CNC(=O)Cn1c(=O)n(C2CCN(CCC(C)(C)C)CC2)c2ccccc21`, the Ki on Nociceptin receptor [1] was determined as 186 nM; at Mu-type opioid receptor, 2710 nM.

For the molecule `CNC(=O)Cn1c(=O)n(C2CCN(Cc3cccc4ccccc34)CC2)c2ccccc21`, the results for the Ki on Nociceptin receptor [1] and on Mu-type opioid receptor were 29 nM and 67 nM, respectively.

On to `CNC(=O)Cn1c(=O)n(C2CCN(Cc3ccc(OC)c4ccccc34)CC2)c2ccccc21`, for which the Ki at Nociceptin receptor [1] was found to be 18 nM; on Mu-type opioid receptor, 120 nM.

For the molecule `CNC(=O)CN1Cc2ccccc2N(C2CCN(C3CCC(C(C)C)CC3)CC2)S1(=O)=O` (stereo unspecified), the Ki on Nociceptin receptor [1] was determined as 2.9 nM; at Mu-type opioid receptor, 12 nM. Besides, the IC50 on Nociceptin receptor [2] was found to be 16 nM.

With `CNC(=O)CN1c2ccccc2N(C2CCN(C3CCC(C(C)C)CC3)CC2)S1(=O)=O` (stereo unspecified), the Ki was 6.4 nM on Nociceptin receptor [1] and 346 nM at Mu-type opioid receptor. Besides, the IC50 on Nociceptin receptor [2] came to 21 nM.

As for `CNC(=O)CN1c2ccccc2N(C2CCN(C3CCC4CCCCC4C3)CC2)S1(=O)=O` (stereo unspecified), the inhibitory constant (Ki) at Nociceptin receptor [1] was determined as 7.1 nM; on Mu-type opioid receptor it was 268 nM. Moreover, at Nociceptin receptor [2], the IC50 amounted to 12 nM.
